AlphaSeq binding of Ab-14 light chain variants to a spike HR2 peptide

Reference: Li et al. 2023, doi:10.1038/s41467-023-39022-2. File: FLAb, binding data.

The target is the same throughout: PDVDLGDISGINAS, from the HR2 region of SARS-CoV-2 spike.

Each scFv is VH, three GGGGS repeats, VL, as in the parent Ab-14, and differs from it in the CDRs of the light chain only.
VH: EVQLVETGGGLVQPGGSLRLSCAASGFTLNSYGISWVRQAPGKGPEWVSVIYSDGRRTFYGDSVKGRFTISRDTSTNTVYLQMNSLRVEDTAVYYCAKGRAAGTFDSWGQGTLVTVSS
VL: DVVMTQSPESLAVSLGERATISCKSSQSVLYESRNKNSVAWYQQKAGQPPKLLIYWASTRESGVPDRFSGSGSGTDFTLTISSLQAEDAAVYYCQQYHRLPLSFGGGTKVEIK

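Designed CDR sequences, proposed from the first random library and measured here. Group labels follow the data file (Ctrl: baseline library sampled from a position-specific scoring matrix, with some repeated check sequences; Rand: our label for a block that the file lists under HC and that is probably the random mutants of the ten best first-round binders; En: ensemble of fine-tuned language models; GP: Gaussian process model; HC: hill climbing; Gen: genetic algorithm; Gibbs: Gibbs sampling; a sequence that several methods proposed may carry one label only). The scFvs were displayed on barcoded MATa yeast, the peptide on MATalpha yeast. Pairs that bind mate more often; barcode pairs of the diploids are counted by sequencing. Each replicate has its own calibration line, from reference interactions of the BCL2 family. Mating was done six times.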

Each variant is given by its three light chain CDRs, as the data file delimits them; those of the parent are KSSQSVLYESRNKNSVA, WASTRES, QQYHRLPLS.
Numbers give log10(Kd / nM), so 0 is 1 nM and 3 is 1 µM. Smaller is tighter.
The mean shown is taken over the replicates in which the pair was detected.
An entry "no signal" has no value in the source: the pair was not observed among the diploids in any replicate. This suggests poor binding but is not conclusive.
Nonspecific signal, from three strains lacking the peptide, appeared in 4% of pairings of all light chain designs, centred on 2.64 (5% of these signals below 1.59); values are not corrected for it.

mean, log10 nM | detected | CDR-L1 | CDR-L2 | CDR-L3 | group
2.04 | 6/6 | MLGGNLMHEMMAKNNVA | HMTTRVE | QQYHRLPLI | En_Gen
2.25 | 5/6 | KVSEFPRGLMSRQDSIA | DNVTREN | QQYDRLPLS | En_Gen
1.62 | 5/6 | TLYGLSNSMSKEKNNVA | EMSTREN | QQYDRLPLI | En_Gen
0.98 | 6/6 | QLSMITGHMSVSKNNVA | EMETRLN | QQYDRLPLS | En_Gen
0.66 | 6/6 | RIQMGDLEGRTAWNNIA | DMEESYR | QQYVRLPLY | En_Gibbs
0.32 | 6/6 | KQQQSEPGLSRNMNSVA | HASTRES | QQYHRLPLS | GP_Gibbs
1.32 | 6/6 | KSSQSVLKESRNKNSVA | SASTRES | QQYHRAPLS | Ctrl
0.45 | 6/6 | ALELFEYQQMKDINSIA | NTEYKTN | QQYVRLPFS | En_Gibbs
1.04 | 6/6 | KFSYVKEMVNTDKESIA | DAHTVQM | QQYSRLPLA | En_Gibbs
-0.24 | 6/6 | KVSGSQLYQSRNSNAVA | NASTRMS | QQYHRLPLS | GP_Gibbs
0.56 | 6/6 | KISQMVTYESTWHNAIA | QTSEREE | QQYHRLPFS | En_HC
0.26 | 6/6 | KLSQSVMFMSGVYNSVA | QMSTRAE | QQYNRLPLI | En_HC
0.36 | 6/6 | KQSQSVLGESRNKNSVA | DASTRES | QQYHRLPLD | GP_HC
0.30 | 6/6 | MLDMAELGYSQLSSSVA | GSANKCQ | QQYFRLPLS | En_Gibbs
0.37 | 6/6 | KLASVTGTEKVMGNNVA | EMETREK | QQYNRLPLS | En_Gen
1.29 | 6/6 | KSSQSVTYESRNANSVA | GASTRES | QQYGKLWLS | Ctrl
-0.09 | 6/6 | KLQQSHLYESRNKNSVA | QASTRES | QQYHRLPLS | GP_Gen
1.08 | 6/6 | KISFNMGETQRNKNSVA | EVSTVPE | QQYWRLPLS | En_HC
2.23 | 4/6 | SIPSEMNQQQTQVNSVA | GEQHTAR | QQYGRLPLS | En_Gibbs
-0.28 | 6/6 | KLSQSVLYEMRNKNSVA | NASQRES | QQYHRLPLS | GP_Gen
3.24 | 1/6 | KSSQSVGYISRDKNSVA | WDSTRES | QQYHRLPLS | Ctrl
1.28 | 6/6 | KSSQSVLYESANKNSVA | WASTRES | QQYHRLPLS | Ctrl
0.84 | 6/6 | KLSMYTGHMSVSKNNVA | EMETRMN | QQYDRLPLS | En_Gen
0.19 | 6/6 | TLTQVQGMESHNKDSVA | DLSTRGQ | QQYHRLPLS | En_HC
no signal | 0/6 | KSSQNVLYESRNKNSVN | WASTREA | QQYHRLPLS | Ctrl
1.19 | 6/6 | NFEQKMALYTGDRSSIA | DKTIEAD | QQYSRLPIT | En_Gibbs
1.96 | 5/6 | IVSQLMLWGMHAPNSIA | EAETRIN | QQYDRLPLF | En_Gen
-0.24 | 6/6 | KLSQSQCYESRNKNNVA | NASDRMS | QQYHRLPLS | GP_Gibbs
-0.23 | 6/6 | KVSQSFLYEQRNKNSVA | DASTRES | QQYHRLPLS | GP_Gen
0.64 | 6/6 | TISNSFMMENQFKNSVA | QVSTRES | QCYDRLPLS | En_HC
0.27 | 6/6 | KIGMVLNQMLHQKNNVA | DLVTREQ | QQYHRLPLS | En_Gen
no signal | 0/6 | KYSQSVLVESRNKNSVA | WCSTRED | QQYHRLPLS | Ctrl
0.85 | 6/6 | KLPQSTMLESVSKNSVA | ELSTRGS | QQYHRLPLS | En_HC
1.53 | 1/6 | MISQLFMYGSRNINSVA | QASTRES | QQYDRLPLI | En_HC
-0.24 | 6/6 | KLYQSQGYESRNKNSVA | NASQRES | QQYHRLPLS | GP_Gen
-0.04 | 6/6 | KSSQSVLQQSRNKNSVA | DASTRES | QQYHRLPLS | GP_HC
0.00 | 6/6 | AISQSVEYESRDKNSVA | NASTRES | QQYHRLPLS | GP_Gibbs
1.85 | 1/6 | KSSQSVLYESRNKNSVA | WASTRES | QAYHRLPLS | Ctrl
0.88 | 6/6 | KSLQSVLYESRNKNVVA | HASTRED | QQYHRLPLS | Rand
0.17 | 6/6 | KIQQSGYYEDRNKNSVA | SASTRCP | QQYHRLPLS | GP_Gibbs
1.23 | 6/6 | KSSQSVYYDSRNKNSVA | HASTRPS | QQYHRLPLS | Ctrl
0.06 | 6/6 | FLSQSQLYESRNKNSVA | NASTRLS | QQYHRLPLS | GP_Gen
0.27 | 6/6 | KLSQSEPYESRCFNSVA | NASTRCS | QQYHRLPLS | GP_Gibbs
-0.21 | 6/6 | MISDLTAYGSRNKNSVA | DLSTRGS | QQYHRLPLS | En_HC
no signal | 0/6 | KLEYWADTFHQNDNSIA | HMTSVRD | QQYHRLPLA | En_Gibbs
-0.14 | 6/6 | KVLQSVLYEQRNKNSVA | HASTRED | QQYHRLPLS | GP_HC
1.93 | 4/6 | ASSNSVLYESRNKNSVA | WASTREK | QQYHRLPSS | Ctrl
-0.12 | 6/6 | KQSQPVLQESRNKNSVA | NASTRES | QQYHRLPLS | Ctrl
-0.18 | 6/6 | KLQQSVLYESRNKNSVA | QASTRSD | QQYHRLPLS | GP_Gibbs
1.19 | 6/6 | KIQLNVVDGWAMHNNIA | GDAWRAR | QQYYHLPLM | En_Gibbs
-0.09 | 6/6 | HLSQSVTYESRNKNSVA | NASTRES | QQYHRLPLN | GP_HC
0.31 | 6/6 | KSSQSWLYESRNKNSVA | GASTREL | QQYHRLPLS | GP_HC
-0.17 | 6/6 | KIQQFYEMESRNKNSVA | SASTRMS | QQYHRLPLS | GP_Gibbs
1.41 | 4/6 | KSSQSVLYESANKNSVA | DASTREY | TQYHRLPLL | Ctrl
-0.24 | 6/6 | KLQQSEDYESRNKNSVA | NASTRLS | QQYHRLPLS | GP_Gen
0.53 | 6/6 | DVHALMEHSSDLNYAIA | HASMRDA | QQYERLPLS | En_Gibbs

6 of these entries, quoted again:

CDR-L1	CDR-L2	CDR-L3	group	mean, log10 nM	detected
ALELFEYQQMKDINSIA	NTEYKTN	QQYVRLPFS	En_Gibbs	0.45	6/6
RIQMGDLEGRTAWNNIA	DMEESYR	QQYVRLPLY	En_Gibbs	0.66	6/6
KSSQSWLYESRNKNSVA	GASTREL	QQYHRLPLS	GP_HC	0.31	6/6
TLTQVQGMESHNKDSVA	DLSTRGQ	QQYHRLPLS	En_HC	0.19	6/6
MLGGNLMHEMMAKNNVA	HMTTRVE	QQYHRLPLI	En_Gen	2.04	6/6
KLSQSEPYESRCFNSVA	NASTRCS	QQYHRLPLS	GP_Gibbs	0.27	6/6

The authors averaged sequences with at least three values out of six and counted those with two or fewer as poor binders.
The range of this assay differs from that of the first round, and the authors advise against merging the two.